The source of these data is patent US20060141546A1, “Bacterial test method by glycated label binding” (priority 2002, published 2006).

One experiment deals with E. coli. Description: Competitive inhibition of ALP binding to bacteria by added protein (Example 3, Table 2). The conditions noted are these: protein 2-40 μg added with ALP 2 μg. Here is the method:
(§1) Less than 20% was no inhibition (NI) and greater than 90% was complete inhibition (CI) with a binding constant great than ALP.
(§2) Bacterial cells (1 to 4.5×10^7 cells/mL) were washed twice with water after centrifugation to separate cells into a packed pellet from the supernatant liquid. The washed cells in pellet form were suspended in 20 ul of N-2-hydroxyethyl piperazine-N′-[3-propane sulfonic acid] EPPS buffer (50 mM at pH 8.0) and 30 μL of water. Glycated protein(s) (2-40 μg) were added. In some cases a glycated protein (2-40 μg) and bovine intestinal alkaline phosphatase (ALP) (2 μg or […]) were added and the binding of the glycated protein measured by the reduction of binding of ALP.
(§3) The mixture of glycated protein and bacterial cells was left at 25° C. for 15 minutes. The mixture was then centrifuged at 30,000 rpm for 30 minutes after which the bacterial cells formed a pellet at the bottom of the tube and were washed with water 4-5 times (50 μL). Centrifugation allows separation of glycoprotein bound to the bacteria cells from unbound glycated protein(s).
(§4) After washing, the bacterial pellets were suspended in 50 μL of borate buffer (25 mM at pH 9.0). […] The color is read at 405 nm using a ELISA plate reader between 15-30 min. The absorbance is directly proportional to the amount of ALP bound to the bacteria cell adhesions for glycated groups. […]

For the next experiment, the system named is S. faec. Described as above. The conditions noted are these: protein 2-40 μg added with ALP 2 μg. Here is the method: as §1, §2, §3, §4

On to “Albumin: glycated protein, simple carbohydrates”, for which the “inhibition of the binding of ALP by bacteria” value in the experiment with E. coli is recorded as 50%; in the experiment with S. faec., 61%.
